# Reference: PubChem BioAssay AID2751 (The Scripps Research Institute Molecular Screening Center, 2010)
# Amino acid sequences for entries named in this document (tags omitted).
# UniProt Q4J6C6, whole entry: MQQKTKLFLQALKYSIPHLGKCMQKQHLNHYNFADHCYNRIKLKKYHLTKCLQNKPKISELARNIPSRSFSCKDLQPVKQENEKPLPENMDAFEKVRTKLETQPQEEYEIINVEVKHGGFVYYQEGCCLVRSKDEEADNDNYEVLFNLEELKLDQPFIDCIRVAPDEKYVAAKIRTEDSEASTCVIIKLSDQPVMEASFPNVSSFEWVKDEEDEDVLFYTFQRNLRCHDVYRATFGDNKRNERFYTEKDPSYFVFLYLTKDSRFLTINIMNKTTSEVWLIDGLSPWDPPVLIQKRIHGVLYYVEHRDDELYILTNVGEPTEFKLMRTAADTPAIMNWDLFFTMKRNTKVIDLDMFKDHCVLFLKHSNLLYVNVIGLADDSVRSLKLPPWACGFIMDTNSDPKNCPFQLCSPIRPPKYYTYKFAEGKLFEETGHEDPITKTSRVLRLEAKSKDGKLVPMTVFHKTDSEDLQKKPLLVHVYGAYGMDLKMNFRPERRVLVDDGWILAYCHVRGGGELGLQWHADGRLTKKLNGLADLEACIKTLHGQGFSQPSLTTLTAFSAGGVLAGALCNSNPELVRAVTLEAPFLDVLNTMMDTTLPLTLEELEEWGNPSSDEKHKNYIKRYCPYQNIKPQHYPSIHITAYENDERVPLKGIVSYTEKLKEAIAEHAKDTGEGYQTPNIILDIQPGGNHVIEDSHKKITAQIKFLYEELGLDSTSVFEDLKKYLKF
# The entries are a selection whose mix differs from that of the whole data set. The source made the active and inactive calls. No stated cut-off is given here; in the data, active means inhibition above about 43%; inactive means the rest.
# Biological target: Prolyl endopeptidase-like (Homo sapiens) (UniProt Q4J6C6)
# Experiment: human PREPL activity-probe blockers – biochemical, fluorescence polarization, primary screen (AID 2751);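 further: 0% = enzyme with DMSO and 100% = wells lacking enzyme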
# Details: recombinant PREPL, fluorescence polarization activity-based probe; at 5.96 µM; active compounds read high
row,SMILES,inhibition
1,O=C(NCC1(N2CCCCC2)CCCCC1)c1ccc(OC(F)F)cc1,inactive: 13.8%
2,O=C(NCC1(N2CCCCC2)CCCCC1)c1cccc([N+](=O)[O-])c1,inactive: 12.9%
3,N#CC1(Nc2ccccc2)CCN(CCc2ccccc2)CC1,inactive: 8.87%
4,CCN1CCC(Nc2ccc(Cl)cc2)CC1,inactive: -0.27%
5,O=C(NCC1(N2CCCCC2)CCCCC1)c1cccc(C(F)(F)F)c1,inactive: -3.54%
6,COc1ccc(NC2CCN(C(=O)OC(C)(C)C)CC2)cc1,inactive: 10.4%
7,CN1CCN(CCOC(=O)C(O)(c2ccccc2)c2ccccc2)CC1,inactive: -1.04%
8,O=C(NCC1(N2CCOCC2)CCCCC1)c1cc(=O)[nH]c2ccccc12,inactive: -10.9%
9,COc1cc(C(=O)NCC2(N3CCCCC3)CCCCC2)ccc1OC(F)F,inactive: -2.2%
10,CN(C)c1cccc(C(=O)NCC2(N3CCCCC3)CCCCC2)c1,inactive: 14.2%
11,COc1ccc(CN(CCCl)CCCl)cc1Cl,inactive: -6.84%
12,CC(C)c1ccc(NC2CCN(C(=O)OC(C)(C)C)CC2)cc1,inactive: 3.79%
13,O=C(NCC1(N2CCOCC2)CCCCC1)c1cc(F)c(F)cc1Cl,inactive: 8.96%
14,COc1cc(OC)c(C(=O)NCC2(N(C)C)CCCCC2)cc1OC,inactive: 17.6%
15,CN1CCC(Nc2cccc(F)c2)CC1,inactive: -3.24%
16,O=C(NCC1(N2CCCCC2)CCCCC1)c1cncc(Br)c1,inactive: 15.2%
17,O=C(NCC1(N2CCCCC2)CCCCC1)c1cccs1,inactive: 15.2%
18,O=C(NCC1(N2CCCCC2)CCCCC1)c1ccc(=O)[nH]c1,inactive: 14%
19,CC(C)(C)OC(=O)N1CCC(N(C(=O)c2ccccc2)c2ccc(F)cc2)CC1,inactive: -4.79%
20,COc1ccc(C(=O)NCC2(N3CCCCC3)CCCCC2)c(OC)c1OC,inactive: 10.6%
21,COc1ccc(C(=O)NCC2(N3CCCCC3)CCCCC2)cc1,inactive: 15.9%

row,SMILES,inhibition
1,CSc1ccccc1C(=O)NCC1(N2CCCCC2)CCCCC1,inactive: 10.8%
2,O=C(NCC1(N2CCOCC2)CCCCC1)c1cc2ccccc2o1,inactive: 27.3%
3,Cc1cc(C)cc(N(C(=O)c2ccccc2)C2CCN(C(=O)OC(C)(C)C)CC2)c1,inactive: 13.4%
4,O=C(NCC1(N2CCCCC2)CCCCC1)c1ccc(Cl)nc1,inactive: 6.48%
5,CCOC(=O)N1CCC(Nc2ccc(OC)cc2)CC1,inactive: 5.06%
6,COc1ccc(Cl)cc1C(=O)NCC1(N2CCOCC2)CCCCC1,inactive: 1.45%
7,N#CC1(Nc2ccccc2)CCN(Cc2ccccc2)CC1,inactive: 9.66%
8,O=C(NCC1(N2CCCCC2)CCCCC1)c1ccc(Cl)s1,inactive: 14.8%
9,O=C(OC1CN2CCC1CC2)C1c2ccccc2Oc2ccccc21 (stereo not drawn),inactive: 20.1%
10,CCOc1ccc(C)cc1CN(CCCl)CCCl,inactive: 4.74%
11,COc1ccc(NC2CCN(CCc3ccccc3)CC2)c(OC)c1,inactive: 13.5%
12,O=C(NCC1(N2CCCCC2)CCCCC1)c1ccc(F)cc1,inactive: -3%
13,Cc1ccc(OCC(C)C)c(CN(CCCl)CCCl)c1,inactive: 4.62%
14,CCOC(=O)N1CCC(Nc2cccc(C)c2)CC1,inactive: -1.96%
15,COc1cc(OC)cc(C(=O)NCC2(N3CCCCC3)CCCCC2)c1,inactive: 14.7%
16,Fc1ccccc1NC1CCN(Cc2ccccc2)CC1,inactive: -55.6%
17,Cc1ccc(C(=O)NCC2(N3CCCCC3)CCCCC2)o1,inactive: -2.11%
18,CCN1CCC(Nc2cccc(F)c2)CC1,inactive: 2.29%
19,CN(C)c1ccc(C(=O)NCC2(N3CCCCC3)CCCCC2)cc1,inactive: 39.9%
20,O=C(NCC1(N2CCCCC2)CCCCC1)c1ccco1,inactive: -13.2%
21,CN1CCC(Nc2ccc(F)c(Cl)c2)CC1,inactive: -7.16%

row,SMILES,inhibition
1,CCOc1ncccc1C(=O)NCC1(N2CCOCC2)CCCCC1,inactive: -0.29%
2,CCCOc1ccc(C(=O)NCC2(N(C)C)CCCCC2)cc1,inactive: -8.42%
3,O=C(O)C1(Nc2ccccc2)CCN(Cc2ccccc2)CC1,inactive: -22.4%
4,CC(C)(C)OC(=O)N1CCC(Nc2ccccc2)CC1,inactive: 2.87%
5,CCC(CO)(C(=O)OC1CN2CCC1CC2)c1ccccc1 (stereo not drawn),inactive: 18.5%
6,COc1cccc(C(=O)N(c2cc(C)cc(C)c2)C2CCN(C(=O)OC(C)(C)C)CC2)c1,inactive: 10.1%
7,COc1cc(OC)cc(C(=O)NCC2(N3CCOCC3)CCCCC2)c1,inactive: -2.56%
8,CCCOc1ccc(C)cc1CN(CCCl)CCCl,inactive: 5.66%
9,CN1CCC(Nc2ccc(Cl)cc2)CC1,inactive: -6.35%
10,O=C(NCC1(N2CCOCC2)CCCCC1)c1cc(Br)ccc1Cl,inactive: 4.28%
11,COc1cc(C(=O)NCC2(N3CCOCC3)CCCCC2)cc(OC)c1C,inactive: 6.88%
12,COc1ccc(C(=O)NCC2(N3CCOCC3)CCCCC2)cc1OC,inactive: 0.14%
13,N/C(=N\O)c1c(N)no[n+]1[O-],inactive: 2.46%
14,CCOC(=O)N1CCC(Nc2ccc(C)cc2)CC1,inactive: 5.34%
15,CCc1cc(C(=O)NCC2(N3CCCCC3)CCCCC2)sc1C,inactive: 4.63%
16,O=C(OC1CN2CCC1CC2)C1c2ccccc2C=Cc2ccccc21 (stereo not drawn),inactive: 13.4%
17,CC(C)(C)OC(=O)N1CCC(N(C(=O)c2ccccc2)c2ccc(Cl)cc2)CC1,inactive: 2.93%
18,N#Cc1ccc(C(=O)NCC2(N3CCCCC3)CCCCC2)cc1,inactive: -2.86%
19,CCCN1CCC(Nc2cc(OC)cc(OC)c2)CC1,inactive: 11.2%
20,c1ccc(CN2CCC(Nc3ccccc3)CC2)cc1,inactive: -3.78%
21,CN(C)C1(CNC(=O)c2cccc(C#N)c2)CCCCC1,inactive: -1.84%
